Screen for blockers of NLRP3-driven cell death, PubChem AID 2061109 (Seoul National University).
Cells: mouse bone marrow macrophages; stimulus: LPS priming, then nigericin; dose: 5 µM; read-out: propidium iodide uptake by live imaging.
Inhibition in %: 0 = stimulated control, 100 = untreated cells; values below 0 were filed as 0. * marks the depositor's active call (above 70%). Part of the library is listed.

{"SMILES": "C[C@@H](Oc1cc(-c2cnn(C3CCNCC3)c2)cnc1N)c1c(Cl)ccc(F)c1Cl.Cl", "inhibition (%)": "56.7"}
{"SMILES": "COc1cc(-c2coc3cc4c(c(OC)c3c2=O)OCO4)cc(OC)c1OC", "inhibition (%)": "56.2"}
{"SMILES": "CCCC(=O)Nc1ccc(OCC(O)CNCCc2ccc(OC)c(OC)c2)c(-c2ccno2)c1", "inhibition (%)": "56.1"}
{"SMILES": "C[C@H]1[C@H](C)CC[C@]2(C)CC[C@]3(C)C(=CC[C@@H]4[C@@]5(C)CC[C@@H](O)[C@](C)(C(=O)O)[C@@H]5CC[C@]43C)[C@H]12", "inhibition (%)": "56.1"}
{"SMILES": "C[C@@H]1O[C@@H](OC[C@H]2O[C@@H](OCCc3ccc(O)c(O)c3)[C@H](O)[C@@H](O[C@@H]3O[C@@H](C)[C@H](O)[C@@H](O)[C@H]3O)[C@@H]2OC(=O)/C=C/c2ccc(O)c(O)c2)[C@H](O)[C@H](O)[C@H]1O", "inhibition (%)": "55.9"}
{"SMILES": "c1c2c(cc3c1OCO3)-c1cc3ccc4c(c3c[n+]1CC2)OCO4", "inhibition (%)": "55.6"}
{"SMILES": "COc1ccc2c(c[n+](C)c3c4cc5c(cc4ccc23)OCO5)c1OC", "inhibition (%)": "55.3"}
{"SMILES": "Cc1cccc(-c2[nH]ncc2-c2ccc3nccnc3c2)n1", "inhibition (%)": "55.2"}
{"SMILES": "COc1cc(O)c(CC=C(C)C)c(O)c1C(=O)/C=C/c1ccc(O)cc1", "inhibition (%)": "55.2"}
{"SMILES": "CCCCCN(CCCCC)C(=O)C(CCC(=O)[O-])NC(=O)c1ccc(Cl)c(Cl)c1.[Na+]", "inhibition (%)": "55.2"}
{"SMILES": "CCN(c1cc(-c2ccc(N3CCN(C)CC3)nc2)cc(C(=O)NCc2c3c(c(C)[nH]c2=O)CCCC3)c1C)C1CCOCC1", "inhibition (%)": "54.8"}
{"SMILES": "C[C@@H]1CN(Cc2ccc(F)cc2)[C@@H](C)CN1C(=O)c1cc2c(C(=O)C(=O)N(C)C)cn(C)c2cc1Cl", "inhibition (%)": "54.7"}
{"SMILES": "COC(=O)C=Cc1ccc(O)c(OC)c1", "inhibition (%)": "54.4"}
{"SMILES": "CCCCCCOc1cc2c(cc1N(C)c1ncc(C(=O)O)cn1)C(C)(C)CCC2(C)C", "inhibition (%)": "54.4"}
{"SMILES": "Nc1nc(NCc2ccccc2)nc(-c2ccccc2CO)n1", "inhibition (%)": "54.1"}
{"SMILES": "CN1CCN(C(=O)/C=C2/c3ccccc3NC(=O)c3ccccc32)CC1", "inhibition (%)": "54.1"}
{"SMILES": "C[C@@H]1O[C@@H](OC[C@H]2O[C@@H](Oc3cc(O)c4c(c3)O[C@H](c3ccc(O)cc3)CC4=O)[C@H](O)[C@@H](O)[C@@H]2O)[C@H](O)[C@H](O)[C@H]1O", "inhibition (%)": "54.0"}
{"SMILES": "C/C1=C\\CC[C@@]2(C)O[C@@H]2[C@H]2OC(=O)[C@H](CN(C)C)[C@@H]2CC1", "inhibition (%)": "53.9"}
{"SMILES": "Oc1cc(O)c2c(c1)O[C@@]1(c3ccc(O)c(O)c3)Oc3cc(O)c4c(c3[C@@H]2[C@@H]1O)O[C@H](c1ccc(O)c(O)c1)[C@@H](O)C4", "inhibition (%)": "53.8"}
{"SMILES": "CCCCN1CCCCC1C(=O)Nc1c(C)cccc1C", "inhibition (%)": "53.8"}
{"SMILES": "O=C1Nc2ccccc2/C1=C\\c1ccc(F)cc1", "inhibition (%)": "53.7"}
{"SMILES": "CC(N)=NCc1cccc(CN)c1.Cl.Cl", "inhibition (%)": "53.7"}
{"SMILES": "COc1ccc2[nH]c(S(=O)Cc3ncc(C)c(OC)c3C)nc2n1", "inhibition (%)": "53.6"}
{"SMILES": "COc1ccc2c(c1)C(c1ccc(F)cc1)=C(CN1CCCC1)CO2.Cl", "inhibition (%)": "53.4"}
{"SMILES": "COc1nccnc1NS(=O)(=O)c1ccc(NC(=O)/C=C/c2ccc([N+](=O)[O-])s2)cc1", "inhibition (%)": "53.2"}
{"SMILES": "CC1C(=O)NC2=Nc3cccc(Cl)c3CN21", "inhibition (%)": "52.9"}
{"SMILES": "COc1cc(/C=C/c2ccccc2)oc(=O)c1", "inhibition (%)": "52.9"}
{"SMILES": "C[C@H]1CCN1c1nc(N2C[C@@H]3C(CC(=O)O)[C@@H]3C2)cc(C(F)(F)F)n1", "inhibition (%)": "52.5"}
{"SMILES": "CCN(CC)C(=O)C(c1ccccc1)N1CCN(c2ccc(NC(=O)c3ccccc3-c3cccnc3)cc2F)CC1", "inhibition (%)": "52.5"}
{"SMILES": "Cc1cccc(-c2[nH]ncc2-c2ccc(F)c(-c3cnn(CCO)c3)c2)n1", "inhibition (%)": "52.4"}
{"SMILES": "O=C(O[C@@H]1Cc2c(O)cc(O)cc2O[C@@H]1c1cc(=O)c(O)c2c(O)c(O)cc([C@H]3Oc4cc(O)cc(O)c4C[C@H]3OC(=O)c3cc(O)c(O)c(O)c3)c2c1)c1cc(O)c(O)c(O)c1", "inhibition (%)": "52.3"}
{"SMILES": "Cc1[nH]c(/C=C2\\C(=O)Nc3ccccc32)c(C)c1CCC(=O)O", "inhibition (%)": "52.3"}
{"SMILES": "CCc1cc2ncc(CN3CCN(c4ccc(C(=O)NC)nc4)CC3)cc2[nH]c1=O", "inhibition (%)": "52.3"}
{"SMILES": "CN[C@H]1CCN(C(=O)c2ccc(Nc3ncc(F)c(-c4cnc(C)n4C(C)C)n3)cc2)C1", "inhibition (%)": "51.7"}
{"SMILES": "Cl.NCCCOc1cc2ccccc2cc1C(=O)Nc1ccc(Cl)cc1O", "inhibition (%)": "51.4"}
{"SMILES": "COC(=O)c1ccc(NCc2cc(O)ccc2O)cc1", "inhibition (%)": "51.1"}
{"SMILES": "O=C1C[C@@H](c2ccc(O)cc2)Oc2cc(O[C@@H]3O[C@H](CO)[C@@H](O)[C@H](O)[C@H]3O)cc(O)c21", "inhibition (%)": "51.0"}
{"SMILES": "Cc1ccc(Cn2nc(CCCc3ccc(OC(C)(C)C(=O)O)cc3)[nH]c2=O)cc1", "inhibition (%)": "51.0"}
{"SMILES": "Cl.NC1=NCC2c3ccccc3Cc3ccccc3N12", "inhibition (%)": "50.9"}
{"SMILES": "O=C(OC12CC3CC(CC(C3)C1)C2)c1ccc(NCc2cc(O)ccc2O)cc1", "inhibition (%)": "50.7"}
{"SMILES": "COc1cc(-c2c(C)cc(O)cc2O[C@@H]2O[C@H](CO)[C@@H](O)[C@H](O)[C@H]2O)oc(=O)c1", "inhibition (%)": "50.7"}
{"SMILES": "Cc1ccc([C@@H]2O[C@H](CO)[C@@H](O)[C@H](O)[C@H]2O)cc1Cc1ccc(-c2ccc(F)cc2)s1.Cc1ccc([C@@H]2O[C@H](CO)[C@@H](O)[C@H](O)[C@H]2O)cc1Cc1ccc(-c2ccc(F)cc2)s1.O", "inhibition (%)": "50.7"}
{"SMILES": "COc1cc2c(cc1OC)CN(CCc1ccc(-n3nnc(-c4cc(OC)c(OC)cc4NC(=O)c4cc(=O)c5ccccc5o4)n3)cc1)CC2.CS(=O)(=O)O.O", "inhibition (%)": "50.7"}
{"SMILES": "O=C(NCc1ccccc1)c1csc(Nc2ccncn2)n1", "inhibition (%)": "50.6"}
{"SMILES": "Nc1ccc(-c2cc(Cl)c(Cl)c3[nH]c4c(c23)CN(C(=O)CO)CC4)cn1", "inhibition (%)": "50.5"}
{"SMILES": "Cc1c[nH]c2nccc(Oc3c(F)cc(Nc4cc(Cl)nc(N)n4)cc3F)c12", "inhibition (%)": "50.5"}
{"SMILES": "c1cc(-c2nc3ccc(-c4ccc5nc(-c6ccncc6)[nH]c5c4)cc3[nH]2)ccn1", "inhibition (%)": "50.3"}
{"SMILES": "O=C1Nc2ccc(Cl)cc2/C1=C/c1cc(Br)c(O)c(Br)c1", "inhibition (%)": "50.2"}
{"SMILES": "Nc1cc(C(F)F)c(-c2nc(N3[C@@H]4CC[C@H]3COC4)nc(N3[C@@H]4CC[C@H]3COC4)n2)cn1", "inhibition (%)": "50.1"}
{"SMILES": "COc1ccc(-c2c(Cl)ncn2-c2ccc(S(N)(=O)=O)cc2)cc1F", "inhibition (%)": "49.9"}
{"SMILES": "CC(=O)Nc1ccc(N2C(=O)C(=Cc3ccc(Cl)cc3)C=C2c2ccccc2)cc1", "inhibition (%)": "49.9"}
{"SMILES": "NS(=O)(=O)c1ccc(NC(=O)Nc2ccc(F)cc2)cc1", "inhibition (%)": "49.8"}
{"SMILES": "OC[C@H]1O[C@@H](n2cnc3c2NC=NC[C@H]3O)C[C@@H]1O", "inhibition (%)": "49.8"}
{"SMILES": "COc1cccc(CN(C(=O)CC(C)(C)C)[C@H]2C[C@@H](C(=O)N3CCNCC3)N(Cc3ccc4c(c3)OCO4)C2)c1", "inhibition (%)": "49.7"}
{"SMILES": "COc1cc(CCN(C)C)c2ccc3ccccc3c2c1OC", "inhibition (%)": "49.5"}
{"SMILES": "Cn1c(=O)c2c(ncn2CCCN2CCC(OC(c3ccccc3)c3ccccc3)CC2)n(C)c1=O", "inhibition (%)": "49.3"}
{"SMILES": "CCCc1cc(=O)c2ccccc2n1C", "inhibition (%)": "48.9"}
{"SMILES": "Cn1c(=O)c2c(ncn2CC(O)CN2CCN(CCCSc3ccccc3)CC2)n(C)c1=O", "inhibition (%)": "48.9"}
{"SMILES": "Cc1cnn(C2CCN(c3nc4ccccc4n3Cc3ccc(F)cc3)CC2)c1", "inhibition (%)": "48.8"}
{"SMILES": "CCC(N)(C(=O)O)c1ccc(C(=O)O)cc1", "inhibition (%)": "48.6"}
{"SMILES": "CS(=O)(=O)c1ccc(NC(=O)c2cc(C#N)c(Sc3c(Cl)cncc3Cl)s2)cc1", "inhibition (%)": "48.5"}
{"SMILES": "CC[C@@]1(c2ccccc2)C2=C(CC(C)(C)CC2=O)Nc2[nH]ncc21", "inhibition (%)": "48.5"}
{"SMILES": "COC(=O)c1ccc([C@H]2c3[nH]c4ccccc4c3C[C@H](C(=O)OC)N2C(=O)CCl)cc1", "inhibition (%)": "47.9"}
{"SMILES": "S=C([S-])N1CCCC1.[NH4+]", "inhibition (%)": "47.9"}
{"SMILES": "Nc1ncnc2c1nnn2[C@@H]1O[C@H](CO)[C@@H](O)[C@H]1O", "inhibition (%)": "47.5"}
{"SMILES": "COc1cc(O)c2c(=O)c(OC)c(-c3ccc(OC)c(O)c3)oc2c1", "inhibition (%)": "47.3"}
{"SMILES": "CC(=O)NC[C@H]1CN(c2ccc(N3CCN(C(=O)CO)CC3)c(F)c2)C(=O)O1", "inhibition (%)": "47.3"}
{"SMILES": "CCOc1ccc(Nc2ccc(C(=C3C=CC(=[N+](CC)Cc4cccc(S(=O)(=O)[O-])c4)C=C3C)c3ccc(N(CC)Cc4cccc(S(=O)(=O)[O-])c4)cc3C)cc2)cc1.[Na+]", "inhibition (%)": "46.9"}
{"SMILES": "CC(C)CNc1ccnc(NCc2csc(-c3ccccc3)n2)n1", "inhibition (%)": "46.9"}
{"SMILES": "O=C(Nc1ccc(Oc2cc(C(F)(F)F)cc(C(F)(F)F)c2)cc1)c1c(F)cccc1I", "inhibition (%)": "46.8"}
{"SMILES": "O[C@H]1[C@H](O)[C@@H](O)CN2CC[C@H](O)[C@H]12", "inhibition (%)": "46.7"}